From patent US9284330B2 (priority 2011, dated 2016) come the findings set out here.

By UniProt entry, the sequences of proteins in these tests, tags left out. Where a name states a change or a piece, a line headed by the entry shows the natural chain unless it says otherwise.
UniProt O42275: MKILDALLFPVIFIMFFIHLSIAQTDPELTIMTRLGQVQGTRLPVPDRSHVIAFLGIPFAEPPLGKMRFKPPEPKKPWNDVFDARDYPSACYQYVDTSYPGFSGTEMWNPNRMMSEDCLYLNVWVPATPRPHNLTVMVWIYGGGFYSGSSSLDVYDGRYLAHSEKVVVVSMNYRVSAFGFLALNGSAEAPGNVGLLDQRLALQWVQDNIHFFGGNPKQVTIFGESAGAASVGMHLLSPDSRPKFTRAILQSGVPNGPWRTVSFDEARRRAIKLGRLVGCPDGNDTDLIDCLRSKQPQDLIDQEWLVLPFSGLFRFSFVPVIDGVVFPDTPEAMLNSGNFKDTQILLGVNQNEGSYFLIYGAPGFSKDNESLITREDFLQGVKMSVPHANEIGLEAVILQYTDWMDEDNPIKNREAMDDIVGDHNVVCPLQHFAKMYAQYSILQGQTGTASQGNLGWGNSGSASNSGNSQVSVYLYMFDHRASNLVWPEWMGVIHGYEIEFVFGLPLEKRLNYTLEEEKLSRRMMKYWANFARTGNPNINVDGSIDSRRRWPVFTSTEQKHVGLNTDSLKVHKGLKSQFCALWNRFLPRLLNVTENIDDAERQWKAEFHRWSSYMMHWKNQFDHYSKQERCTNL

“And” between values parts separate entries of the source, which are not always exact repeats. Equal values may be shown once.

One assay addresses acetylcholinesterase (Electrophorus electricus (Electric eel) (Gymnotus electricus), UniProt O42275). Description: biochemical.
A further assay has as its system L-type Ca2+ channel. Description: Blocking of L-type Ca2+ channel by high content screening analyzer, KCl-induced calcium ion influx in SH-SY5Y cells (Fluo-4-AM).

Consider `COC(=O)C1=C(C)Nc2nc3c(c(N)c2C1c1cccc([N+](=O)[O-])c1)CCCC3Cl` (centres unmarked) [Compound S21, 5-amino-9-chloro-2-methyl-4-(3-nitrophenyl)-1,4,6,7,8,9-hexahydrobenzo[b][1,8]nap hthyridine-3-carboxylic acid methyl ester], for which the IC50 on acetylcholinesterase amounted to 1.11 µM.
With `COC(=O)C1=C(C)Nc2nc3c(c(N)c2C1c1cccc([N+](=O)[O-])c1)CCC(C)C3` (centres unmarked) [Compound S22, 5-amino-2,8-dimethyl-4-(3-nitrophenyl)-1,4,6,7,8,9-hexahydrobenzo[b][1,8]naphthyridine-3-carboxylic acid methyl ester], the “Inhibition rate of KCl-induced calcium ion influx” value with L-type Ca2+ channel was 45.06% and 82.60%.

By IC50 is commonly meant the concentration at which inhibition is half-maximal. Read a low IC50 as greater potency.
